Screening results (PubChem BioAssay)
Only some compounds are listed: those with a hit (about 1.6% of all), similar ones and a draw of the others.
ARNT TACC3 PPI = disrupts binding between human ARNT and TACC3. AlphaScreen His-ARNT PAS-B/GST-TACC3 binding, luminescence; TACC3 fragment carries E629A point mutation. inhibition, % at 9.99 µM. 390,000 compounds, 0.66% hits. AID 623870;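 active = mean inhibition of replicates at least 50% and at least half of replicates each reaching 50%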;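 note: 0% = complete ARNT plus TACC3 wells and 100% = ARNT alone without TACC3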
CAL PDZ FP-1 = blocks peptide binding to human CAL PDZ domain; 330,000 compounds, 0.02% hits; inhibition, % at 20 µM; purified CAL PDZ, TMR-peptide fluorescence polarization, 1 h; AID 504414;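 active = highest replicate inhibition of at least 40%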;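 note: plate controls were DMSO neutral control wells for no effect and unlabeled competitor peptide control wells for full effect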
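System: purified tagged CAL PDZ domain construct (CerCALP). Schedule: 1 h incubation at room temperature before polarization reading. Medium: 25 mM sodium phosphate pH 7.4, 150 mM NaCl, TCEP, IgG, Thesit. Read-out: percent inhibition from loss of millipolarization. Measured by: FP readout, S and P plane fluorescence. Probe or stimulus: fluorescent TMR peptide probe.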
Vif imaging = blocks HIV Vif function | HEK293T cells, Vif self-association by quenched fluorescence, imaging, 24 h | inhibition, % at 7.49 µM | 340,000 compounds, 0.35% hits | AID 602346; in the data active = inhibition above about 50%, passing the limit was not always enough
PglD inh = PglD (C. jejuni) enzyme inhibition; purified PglD enzyme, DTNB colorimetric CoA detection; inhibition, % at 12.5 µM; 360,000 compounds, 0.098% hits; AID 602405; in the data active = inhibition above about 16%, passing the limit was not always enough
Yeast UUG start = modulators of yeast start codon fidelity, primary screen, whole organism, S. cerevisiae, single point, plate reader; S. cerevisiae UUG-firefly luciferase reporter, luminescence/redox ratio; activity score, % at 18.7 µM; 0.13% of 350,000 active; AID 602363, 2012;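 active = replicate mean at a twofold rise or more, about +100% in these data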;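 also: firefly luciferase made from a UUG start codon reports start codon fidelity; reporter light over untreated wells divided by growth signal over untreated wells; some hits fall short of that in this replicate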
CAL PDZ FP-2 = inhibitors of human CAL PDZ peptide binding; Q9HD26; purified CAL PDZ, TMR-peptide fluorescence polarization, 1 h; inhibition, % at 24.9 µM; 300,000 compounds, 0.92% hits; AID 602252;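 active = mean inhibition of at least 30% with at least half of replicates also reaching 30%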;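 note: 0% = DMSO neutral control and 100% = excess unlabeled competitor peptide PRC23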
The depositor's hits bear a star; / = no result; + = active, no number.

1. C[C@@H]1CCCCO[C@@H](CN(C)C)[C@@H](C)CN([C@@H](C)CO)C(=O)c2cc(NS(=O)(=O)c3ccccc3)ccc2O1
2. C=CC[C@@]1(C(=O)N2CCCCC2)N=C(c2ccc(OCCCO)cc2)O[C@@H]1c1ccccc1
3. CC(=O)OCC(=O)C1(O)CCC2C3CC(F)C4=CC(=O)CCC4(C)C3C(O)CC21C (stereo not drawn)
4. CC(=O)OCC(=O)C1(O)CCC2C3CC(F)C4=CC(=O)CCC4(C)C3C(=O)CC21C (stereo not drawn)
5. CN(C)c1ccc(CNC(=O)C2CCN(S(=O)(=O)c3ccc4c(c3)oc(=O)n4C)CC2)cc1
6. Cc1ccsc1CN1CCC(C(=O)NCc2ccccc2Cl)CC1
7. Cn1c(=O)oc2cc(S(=O)(=O)N3CCC(C(=O)NCc4ccccc4Cl)CC3)ccc21
8. O=C(Cn1c(=O)oc2cc(S(=O)(=O)N3CCCC3)ccc21)Nc1ccccc1Br

assay / compound	1	2	3	4	5	6	7	8
ARNT TACC3 PPI	-13.2	18.3	-3.7	-3.2	5.9	1.2	5.0	-8.4
CAL PDZ FP-1	/	/	0.9	0.4	-2.7	-1.7	6.7	-1.3
Vif imaging	/	/	16.7	1.9	-1.3	4.9	16.4	-9.5
PglD inh	40.1	-4.0	0.6	-3.4	3.4	/	-5.3	1.1
Yeast UUG start	-0.3	-6.0	-1.9	-12.6	-17.9	/	-11.2	-13.2
CAL PDZ FP-2	/	/	85.6*	129.7*	1.2	59.3*	50.3*	60.6*

9. C[C@H](CO)N1C[C@H](C)[C@H](CN(C)C(=O)c2ccccc2)OCCCC[C@H](C)Oc2ccc(NC(=O)CCC(F)(F)F)cc2C1=O
10. COc1ccc(-c2csc(NC(=O)c3ccccc3NS(=O)(=O)c3ccc(F)c(F)c3)n2)cc1
11. Cc1ccc(S(=O)(=O)Nc2ccccc2C(=O)Nc2nc(-c3ccc(F)cc3)cs2)cc1
12. Cc1cc(C)n(Cc2ccccc2Cl)n1
13. CCNC(=S)NNC(=O)c1ccccn1
14. CCNC(=S)NNC(=O)c1ccccc1Cl
15. CCNC(=S)NNC(=O)c1ccncc1
16. O=C(NNC(=S)Nc1ccc(Cl)c(Cl)c1)c1ccccn1

assay / compound	9	10	11	12	13	14	15	16
ARNT TACC3 PPI	-3.0	2.2	-12.8	-4.5	67.5*	-11.6	1.4	74.8*
CAL PDZ FP-1	/	-0.5	-1.4	/	0.4	-0.1	-0.5	0.1
Vif imaging	/	-6.1	-20.8	8.3	2.7	-7.2	9.5	/
PglD inh	-0.7	-0.7	1.5	-8.2	2.1	/	/	/
Yeast UUG start	20.1	1.7	-8.2	-4.0	6.9	/	/	/
CAL PDZ FP-2	/	42.4*	-2.5	41.2*	-2.0	1.9	68.5*	3.6

17. C=C(C)CNC(=S)NNC(=O)c1ccncc1
18. S=C(NCc1ccccn1)Nc1ccc(Cl)c(Cl)c1
19. Cc1ccc(S(=O)(=O)N(C)C[C@H]2Oc3ccc(NS(=O)(=O)c4ccccc4)cc3C(=O)N([C@H](C)CO)C[C@@H]2C)cc1
20. Cc1noc(C)c1NC(=O)NCC[C@H]1CC[C@H](NC(=O)Cc2cccnc2)[C@H](CO)O1
21. CCC(=O)N1[C@@H]2Cn3c(ccc(C4=CCCC4)c3=O)[C@H]1[C@@H](C(=O)N[C@@H](C)c1ccccc1)[C@@H]2CO
22. CC1CC(C)CN(c2ccc(-n3cnnn3)cc2[N+](=O)[O-])C1 (stereo not drawn)
23. O=[N+]([O-])c1cc(-n2cnnn2)ccc1N1CCC(Cc2ccccc2)CC1
24. NC(=O)c1c(NC(=O)c2ccccc2F)sc2c1CCCC2

assay / compound	17	18	19	20	21	22	23	24
ARNT TACC3 PPI	-2.2	/	0.6	2.1	-5.4	5.9	19.7	1.6
CAL PDZ FP-1	-2.7	-0.1	/	/	/	-0.6	-0.2	1.6
Vif imaging	-4.7	/	/	/	/	-0.4	78.2*	3.4
PglD inh	/	/	0.8	2.0	-1.7	3.2	-0.6	-4.7
Yeast UUG start	/	/	9.3	-9.2	/	-9.6	-6.7	-2.7
CAL PDZ FP-2	-1.1	-3.2	/	/	/	/	-6.1	76.5*

Taken from above.
Entry for compound 20 under Yeast UUG start: -9.2
Entry for compound 18 under CAL PDZ FP-2: -3.2
Entry for compound 23 under CAL PDZ FP-2: -6.1
Entry for compound 17 under CAL PDZ FP-1: -2.7

Next part:
25. NC(=O)c1c(NC(=O)c2ccccc2C(=O)O)sc2c1CCCC2
26. CCOc1ccc2c(c1)C(C)=CC(C)(C)N2C(=O)Nc1ccccc1
27. Cc1cc(NC(=O)CN(C)S(=O)(=O)c2cccc(Cl)c2)no1
28. CN(CC(=O)Nc1ccc(Cl)cc1)S(=O)(=O)c1ccc2c(c1)n(C)c(=O)c(=O)n2C
29. C[C@H](CO)N1C[C@H](C)[C@H](CN(C)Cc2ccc(Oc3ccccc3)cc2)Oc2c(NC(=O)Nc3ccc(C(F)(F)F)cc3)cccc2C1=O
30. COc1cc(/C=C2/C(=N)N3C=CSC3=NC2=O)ccc1OCCOc1ccc(NC(C)=O)cc1
31. COc1cc(/C=C2/C(=N)N3C=CSC3=NC2=O)ccc1OCCCOc1ccccc1C
32. CC(C)(C)N(Cc1nc(-c2ccccc2)no1)C(=O)c1ccc2c(c1)OCO2

assay / compound	25	26	27	28	29	30	31	32
ARNT TACC3 PPI	-3.9	48.4*	0.9	-1.6	-3.4	11.9	2.5	-1.7
CAL PDZ FP-1	-7.7	0.5	-0.2	-1.4	/	-2.3	-1.6	-1.3
Vif imaging	8.7	-0.6	0.1	-2.7	/	60.6*	10.8	7.0
PglD inh	-1.6	/	/	1.8	-2.2	/	-5.6	-2.7
Yeast UUG start	-1.7	/	/	-6.7	0.2	/	17.0	-4.4
CAL PDZ FP-2	-4.6	-3.4	112.5*	+	/	-0.2	-3.5	65.1*

33. CCN1CCc2c(sc(NC(=S)NC(=O)c3ccc(Cl)cc3)c2C(N)=O)C1
34. COCCn1c(-c2ccco2)csc1=Nc1cccnc1
35. COc1ccc(O)c(/C=N/n2c(-c3ccco3)csc2=Nc2cccnc2)c1
36. COc1cc2nc(Nc3ccc(C)c(C)c3)nc(N)c2cc1OC
37. C[C@@H]1CN([C@H](C)CO)C(=O)c2cc(NS(=O)(=O)c3ccccc3)ccc2O[C@@H](C)CCCCO[C@@H]1CN(C)S(=O)(=O)c1cn(C)cn1
38. O=C1NCC2=C1C(c1ccccc1)Nc1ccccc1N2 (stereo not drawn)
39. Cc1cn(CC(=O)NCc2ccccn2)c(=O)[nH]c1=O
40. COc1ccc(NC(=O)N(C)C[C@@H]2Oc3c(NS(=O)(=O)c4ccc(Cl)cc4)cccc3C(=O)N([C@H](C)CO)C[C@@H]2C)cc1

assay / compound	33	34	35	36	37	38	39	40
ARNT TACC3 PPI	16.3	9.8	61.9*	50.2*	-14.1	active	-4.9	16.2
CAL PDZ FP-1	-0.4	0.4	-2.1	1.6	/	-5.9	-0.2	/
Vif imaging	50.8*	0.0	8.0	1.5	/	-2.1	-1.0	/
PglD inh	-5.9	/	/	-6.6	1.3	2.6	-5.3	-0.3
Yeast UUG start	6.6	/	/	-12.8	-2.1	27.7	-18.7	-3.9
CAL PDZ FP-2	1.2	/	-2.3	-3.4	/	-6.7	+	/

41. C[C@@H]1CN([C@H](C)CO)C(=O)Cc2cc(NC(=O)Cn3cnnn3)ccc2O[C@H]1CN(C)CC1CC1
42. CCn1c(=O)cc(SCC(=O)NCCCN2CCC(C)CC2)c2ccccc21
43. CCOC(=O)c1cc(OC(=O)c2ccccc2OC)n(-c2ccccc2)n1
44. C1CCCC(NC2=NCCO2)CCC1
45. N#Cc1cccc2c1-c1ccccc1/C2=N/NC(N)=S
46. O=C(NC1CCCC1)c1ncn[nH]1
47. COc1cccc(NC(=O)N[C@H]2C=C[C@@H](CC(=O)N3CCCCC3)O[C@@H]2CO)c1
48. CC(C)C1C(C#N)=C(N)Oc2n[nH]c(-c3cccs3)c21 (stereo not drawn)

assay / compound	41	42	43	44	45	46	47	48
ARNT TACC3 PPI	-1.6	2.1	0.9	22.9	12.7	22.4*	-8.4	-10.3
CAL PDZ FP-1	/	-0.5	-3.0	-0.6	-0.3	-1.5	/	-0.9
Vif imaging	/	0.2	77.6*	-1.0	-11.8	2.9	/	1.5
PglD inh	0.5	/	5.5	-0.6	/	8.3	-0.3	-3.6
Yeast UUG start	-3.3	/	-13.2	-18.7	/	-8.1	1.9	-6.4
CAL PDZ FP-2	/	30.6*	-1.6	59.0*	56.1*	-0.1	/	54.5*

At a glance, some entries already given:
46. O=C(NC1CCCC1)c1ncn[nH]1
47. COc1cccc(NC(=O)N[C@H]2C=C[C@@H](CC(=O)N3CCCCC3)O[C@@H]2CO)c1
48. CC(C)C1C(C#N)=C(N)Oc2n[nH]c(-c3cccs3)c21 (stereo not drawn)

assay / compound	46	47	48
ARNT TACC3 PPI	22.4*	-8.4	-10.3
CAL PDZ FP-1	-1.5	/	-0.9
Vif imaging	2.9	/	1.5
PglD inh	8.3	-0.3	-3.6
Yeast UUG start	-8.1	1.9	-6.4
CAL PDZ FP-2	-0.1	/	54.5*
